# Laboratory results taken from patent US20210236513A1, “NOVEL USES” (ZARODEX THERAPEUTICS LIMITED, priority 2018, published 2021).
# Tested on: circulating immunoglobulins (IgG1, IgG2a, IgG2b, IgG3, IgA, IgM, kappa, lambda)
# Test: Wild type mouse study, circulating immunoglobulin profile by ELISA
# Conditions: FIG. 24; for Circulating IgA levels compared to control: clozapine 5 and 10 mg/kg, haloperidol 1 mg/kg
Structure (SMILES),Other circulating immunoglobulin isotype classes,Circulating IgA levels compared to control
"CN1CCN(C2=Nc3cc(Cl)ccc3Nc3ccccc32)CC1 [Clozapine, clozapine]",No other isotype classes were affected,reduction in circulating IgA levels
"O=C(CCCN1CCC(O)(c2ccc(Cl)cc2)CC1)c1ccc(F)cc1 [Haloperidol, haloperidol]",–,not observed
